Antibody variant affinities, Ab-14 heavy chain, assay B

Source: Li et al. 2023 (doi:10.1038/s41467-023-39022-2), MIT Lincoln Laboratory and A-Alpha Bio; data file from the FLAb repository.

Target: peptide PDVDLGDISGINAS, taken from heptad repeat 2 (HR2) of SARS-CoV-2 spike.

The variants keep the light chain, the linker and the frameworks of Ab-14 (scFv order VH, a (GGGGS)3 linker, VL).
VH: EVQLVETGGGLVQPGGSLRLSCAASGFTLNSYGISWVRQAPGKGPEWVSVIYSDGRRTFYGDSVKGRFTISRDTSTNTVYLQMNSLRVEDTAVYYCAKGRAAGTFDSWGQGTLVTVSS
VL: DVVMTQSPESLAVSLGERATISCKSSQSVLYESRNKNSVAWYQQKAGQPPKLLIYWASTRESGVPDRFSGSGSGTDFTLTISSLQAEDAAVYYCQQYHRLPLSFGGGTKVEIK

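The starting antibody came from a phage panning campaign against this peptide. These sequences belong to a second round, designed from the earlier measurements on random variants of the parent. Group labels follow the data file (Ctrl: baseline library sampled from a position-specific scoring matrix, with some repeated check sequences; En: ensemble of fine-tuned language models; GP: Gaussian process model; GPLM: also part of the Gaussian process libraries; HC: hill climbing; Gen: genetic algorithm; Gibbs: Gibbs sampling; a sequence that several methods proposed may carry one label only). In AlphaSeq, yeast of one mating type display the scFv and yeast of the other type display the target. Mating (16 h, 30 °C) was followed by selection of diploids and sequencing of their barcodes. The ratio of observed to expected reads was calibrated, replicate by replicate, on BCL2-family standards whose Kd was known from biolayer interferometry. Mating was done six times.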

Variants are written as CDR1, CDR2 and CDR3 of the heavy chain (limits as in the source). Parent: GFTLNSYGIS, VIYSDGRRTFYGDSVK, GRAAGTFDS. The read-out is the apparent dissociation constant on a log10 scale (nM): the lower, the stronger. The mean shown is taken over the replicates in which the pair was detected. Where no diploid with the target was found in that replicate, the entry reads "n.d.": below detection, most likely a poor binder, though not proof of it. The list is sorted by this average, lowest first, undetected variants last. The range of this assay differs from that of the first round, and the authors advise against merging the two.

CDR-H1,CDR-H2,CDR-H3,group,"replicates, log10 nM",mean log10 Kd (nM)
GFDLNEYGIS,VIYADGMRTAYADSVK,GEIAGTFDI,En_Gen,-0.87 -1.05 -0.91 -0.93 -1.44 -0.74,-0.99
GFNLDEYGIS,VIYADGRRTFYADSVK,GEHAGTFDT,En_HC,-1.03 -0.72 -0.75 -0.95 -1.00 -0.42,-0.81
GFDLNEYGIS,VIYADGRRTVYADSVK,GQLAGTFDF,En_HC,-0.36 -0.82 -0.90 -0.74 -0.71 -0.74,-0.71
GFDLNEYGIS,VIYADGRRTSYADSVK,GQLAGTFDS,En_HC,-0.71 -1.00 -0.70 -1.04 -0.63 0.03,-0.67
GFSLNEYGIS,VIYADGRRTFYADNVK,GNVAGTFDQ,En_HC,-0.63 -0.57 -0.89 -0.49 -0.59 -0.70,-0.65
GFDLDEYGIS,VIYADGVRTAYADNVK,GENAGTFDV,En_Gen,-0.65 -0.63 -0.47 -1.08 -0.47 -0.48,-0.63
GFDLNEYGIS,VIYADGQRTAYADSVK,GKTAGTFDS,En_HC,-0.75 -0.66 0.17 -1.02 -1.24 -0.21,-0.62
GFDLNEYGIS,VIYADGMRTAYSDSVK,GNTAGTFDM,En_Gen,-0.65 -0.69 -0.83 -0.39 -0.67 -0.42,-0.61
GFDLNEYGIS,VIYADGRRTAYTDSVK,GNVAGTFDV,En_Gen,-0.55 -0.79 -0.61 0.11 -0.80 -0.48,-0.52
GFDLNEYGIS,VIYADGRRTFYTDSVK,GETAGTFDV,En_HC,-0.64 -0.37 -0.12 -0.74 -0.25 -0.51,-0.44
GFDLNEYGIS,VIYADGQRTFYADSVK,GSEAGTFNM,En_HC,-0.45 -0.20 -0.51 -0.36 -0.40 -0.67,-0.43
GFDLNEYGIS,VIYADGMRTYYADSVK,GETAGTFDV,En_Gen,-0.06 0.01 -0.02 0.11 -0.50 0.11,-0.06
GFDLNEYGIS,VIYADGMRTAYSDNVK,GNVAGTFDV,En_Gen,0.15 0.02 -0.01 -0.17 0.10 0.16,0.04
GFTINTYGIS,VIYADGRRTFYGDSVK,GQAAGTFDS,Ctrl,0.30 0.30 0.12 -0.02 -0.11 0.56,0.19
GFNLNSYGIS,VIYSDGRRTFYADSVK,GQLAGTFDS,GPLM_Gen,0.42 0.10 -0.09 0.26 0.26 0.22,0.20
GADIQEYGIS,VIYADGIRSAYAQDVK,GEIGSQFDI,En_Gibbs,n.d. 0.38 n.d. n.d. n.d. n.d.,0.38
GFTLESYGIS,VIYADGRRTFYGDSVK,GRAAGTFDN,GP_Gibbs,0.19 0.37 0.50 0.82 0.66 0.34,0.48
GFNLNSYGIS,VIYSDGRRTFYADSVK,GEAAGTFDS,GPLM_Gen,0.75 0.53 0.53 0.60 0.54 0.55,0.58
GFDLNEYGIS,VIYADGKRKAYADDVK,GNVAGTFDV,En_Gen,n.d. 0.51 n.d. 0.67 n.d. n.d.,0.59
GFTLNSYGIS,VIYADGRRTFYGDSVK,GRHAGTFDS,Ctrl,0.44 1.00 1.00 0.55 0.93 0.97,0.82
GFDLEDYGIS,VIYADGRRTFYSDSVK,GEIAGTFDM,En_HC,n.d. n.d. n.d. 0.99 n.d. n.d.,0.99
GFPLNEYGIS,VIYSDGRRTFYGDSVK,GRHAGTFDS,GP_Gen,1.46 0.83 1.17 0.28 1.04 1.50,1.05
GFELNEYGIS,VIYSDGRRTFYGDSVK,GRMAGTFDG,GP_HC,1.71 0.89 0.63 0.76 1.28 1.33,1.10
AFDLNSYGIS,VIYSDGRRTFYADSVK,GNAAGTFDS,GP_Gibbs,0.95 1.20 1.24 1.85 1.92 1.38,1.42
GFTLESYGIS,VIYSDGKRTFYADQVK,GRAAGTFDS,GPLM_Gibbs,0.96 1.99 1.83 n.d. n.d. 1.63,1.60
GFTLESYGIS,VIYSDGRRTFYGDSVK,GREAGAFDS,Ctrl,1.20 1.61 2.38 1.40 1.68 n.d.,1.65
GFTLNSYGIS,VIYSDGRRTFYGDSVV,GKAPGTFDS,Ctrl,2.18 n.d. 1.00 n.d. 2.72 1.24,1.79
GFDLNSFGIS,VIYSDGRRTFYLDSVK,GRLAGTFDS,GP_HC,1.22 1.51 2.13 1.93 2.05 2.20,1.84
GDTLGSYGIS,VIYSDGRRTFYGDSVK,GRAAGTFDS,Ctrl,2.20 n.d. 2.28 n.d. n.d. n.d.,2.24
GFTLNSYGIS,VIYSDGRRTFYADRVK,GQAAGTFDL,GP_Gibbs,n.d. n.d. n.d. n.d. 1.92 3.28,2.60
GFNLNEVGIS,VIYADGSRSAYVDNVK,GGVVAVDFV,En_Gibbs,n.d. n.d. n.d. n.d. n.d. n.d.,n.d.
GFTLNSYGIS,VIYSDGRRTFYGDSVK,GRAAGDGDS,Ctrl,n.d. n.d. n.d. n.d. n.d. n.d.,n.d.
GFQIEEYGIS,VIYADGDRMSYDNKVK,GQISGQFDM,En_Gibbs,n.d. n.d. n.d. n.d. n.d. n.d.,n.d.
GFTLNDYGIS,VIYSDGRRTFYGDSVK,GRAAGLFDT,Ctrl,n.d. n.d. n.d. n.d. n.d. n.d.,n.d.
GFDLNSYGIS,VIYSDGRRTFYGDSVK,GRTAGMFNS,GP_HC,n.d. n.d. n.d. n.d. n.d. n.d.,n.d.
GFNLDEYGIS,VIYADGVRTAYASKVK,GKVWWFLLM,En_Gibbs,n.d. n.d. n.d. n.d. n.d. n.d.,n.d.
GFGLGEYGIS,VIYADGMRAAYVTSVK,GSEAGTFFT,En_Gibbs,n.d. n.d. n.d. n.d. n.d. n.d.,n.d.
GFNLNQYGIS,VIYSDGRRTFYSDSVK,GRAAGTFDS,Ctrl,n.d. n.d. n.d. n.d. n.d. n.d.,n.d.
GFTLNDYGIS,VIYSDGRRTFYGDSVK,GRIAGTFWS,GPLM_HC,n.d. n.d. n.d. n.d. n.d. n.d.,n.d.
GFTLNSYGIS,VIYSDGRRTFYGDSVK,GKADGTFDS,Ctrl,n.d. n.d. n.d. n.d. n.d. n.d.,n.d.

From the list, the first 6 with no signal in any replicate:

{"CDR-H1": "GFNLNEVGIS", "CDR-H2": "VIYADGSRSAYVDNVK", "CDR-H3": "GGVVAVDFV", "group": "En_Gibbs", "replicates, log10 nM": "n.d. n.d. n.d. n.d. n.d. n.d.", "mean log10 Kd (nM)": "n.d."}
{"CDR-H1": "GFTLNSYGIS", "CDR-H2": "VIYSDGRRTFYGDSVK", "CDR-H3": "GRAAGDGDS", "group": "Ctrl", "replicates, log10 nM": "n.d. n.d. n.d. n.d. n.d. n.d.", "mean log10 Kd (nM)": "n.d."}
{"CDR-H1": "GFQIEEYGIS", "CDR-H2": "VIYADGDRMSYDNKVK", "CDR-H3": "GQISGQFDM", "group": "En_Gibbs", "replicates, log10 nM": "n.d. n.d. n.d. n.d. n.d. n.d.", "mean log10 Kd (nM)": "n.d."}
{"CDR-H1": "GFTLNDYGIS", "CDR-H2": "VIYSDGRRTFYGDSVK", "CDR-H3": "GRAAGLFDT", "group": "Ctrl", "replicates, log10 nM": "n.d. n.d. n.d. n.d. n.d. n.d.", "mean log10 Kd (nM)": "n.d."}
{"CDR-H1": "GFDLNSYGIS", "CDR-H2": "VIYSDGRRTFYGDSVK", "CDR-H3": "GRTAGMFNS", "group": "GP_HC", "replicates, log10 nM": "n.d. n.d. n.d. n.d. n.d. n.d.", "mean log10 Kd (nM)": "n.d."}
{"CDR-H1": "GFNLDEYGIS", "CDR-H2": "VIYADGVRTAYASKVK", "CDR-H3": "GKVWWFLLM", "group": "En_Gibbs", "replicates, log10 nM": "n.d. n.d. n.d. n.d. n.d. n.d.", "mean log10 Kd (nM)": "n.d."}

Nonspecific signal, from three strains lacking the peptide, appeared in 1% of pairings of all heavy chain designs, centred on 2.08 (5% of these signals below 0.84); values are not corrected for it. The authors' rule: three or more of the six replicates give a measured affinity, fewer mean a poor binder. The parent sequence was in this pool as ten entries: three were never detected, three once, and four in most replicates, with averages from 0.34 to 2.37.